From ChEMBL document CHEMBL5149972, “Novel Antimalarial Tetrazoles and Amides Active against the Hemoglobin Degradation Pathway in Plasmodium falciparum” (J Med Chem, 2021)

Assays:
Format in all cases: functional
[1] = Fold resistance, ratio of EC50 for antiplasmodial activity against chloroquine and pyrimethamine resistant Plasmodium falciparum Dd2 infected in human RBC to EC50 for antiplasmodial activity against asexual blood stage Plasmodium falciparum 3D7 infected in human RBC
[2] = Fold resistance, ratio of EC50 for antiplasmodial activity against Plasmodium falciparum NF54 infected in human RBC to EC50 for antiplasmodial activity against asexual blood stage Plasmodium falciparum 3D7 infected in human RBC
[3] = Fold resistance, ratio of EC50 for antiplasmodial activity against chloroquine, atovaquone and pyrimethamine resistant Plasmodium falciparum TM90C2B infected in human RBC to EC50 for antiplasmodial activity against asexual blood stage Plasmodium falciparum 3D7 infected in human RBC
[4] = Fold resistance, ratio of EC50 for antiplasmodial activity against chloroquine and pyrimethamine resistant Plasmodium falciparum K1 infected in human RBC to EC50 for antiplasmodial activity against asexual blood stage Plasmodium falciparum 3D7 infected in human RBC
[5] = Fold resistance, ratio of EC50 for antiplasmodial activity against chloroquine and pyrimethamine resistant Plasmodium falciparum 7G8 infected in human RBC to EC50 for antiplasmodial activity against asexual blood stage Plasmodium falciparum 3D7 infected in human RBC

Cc1ccccc1-n1nnnc1C(c1cncnc1)N(Cc1cccc(C(F)(F)F)c1)C1CC1 (racemic)
Ratio [1]: 4.5 | Ratio [2]: 2.1 | Ratio [3]: 1.7 | Ratio [4]: 1.2 | Ratio [5]: 0.4
